Laboratory results taken from patent US20240408271A1, “Functionalized Linkers in Responsive Biomaterials” (priority 2021, published 2024).

Test system: MC3T3-E1 cells
Type: cell-based
Conditions: MC3T3-E1, without H2O2
Text: FIG. 14C is a graph showing a cell saving study capability test of released ethyl pyruvate and degraded ethyl pyruvate.
As shown in FIGS. 14A and 14B, in vitro cytotoxicity profiles were first established for H2O2 and ethyl pyruvate with MC3T3-E1 pre-osteoblast cells.

## ethyl pyruvate thioketal [EPTK]
  baseline toxicity of linker: non-toxic
